The record followed here is PubChem BioAssay (Tox21).

Amino acid sequences for entries named in this document (tags omitted).
UniProt P08659, whole entry: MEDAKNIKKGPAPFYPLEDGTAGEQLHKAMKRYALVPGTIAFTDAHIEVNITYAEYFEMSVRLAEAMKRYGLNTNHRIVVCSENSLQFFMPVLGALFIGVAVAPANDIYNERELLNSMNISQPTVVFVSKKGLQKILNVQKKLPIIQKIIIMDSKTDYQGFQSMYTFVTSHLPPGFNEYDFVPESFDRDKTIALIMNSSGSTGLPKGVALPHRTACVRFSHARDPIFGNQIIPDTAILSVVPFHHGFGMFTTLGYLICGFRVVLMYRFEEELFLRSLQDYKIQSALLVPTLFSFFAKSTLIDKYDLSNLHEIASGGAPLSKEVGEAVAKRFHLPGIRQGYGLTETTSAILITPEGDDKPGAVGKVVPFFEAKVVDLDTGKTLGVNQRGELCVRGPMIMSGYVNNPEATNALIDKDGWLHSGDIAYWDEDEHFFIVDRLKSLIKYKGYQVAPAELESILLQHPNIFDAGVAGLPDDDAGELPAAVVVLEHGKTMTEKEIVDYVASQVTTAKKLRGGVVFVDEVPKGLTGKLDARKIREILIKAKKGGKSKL
UniProt Q14994, whole entry: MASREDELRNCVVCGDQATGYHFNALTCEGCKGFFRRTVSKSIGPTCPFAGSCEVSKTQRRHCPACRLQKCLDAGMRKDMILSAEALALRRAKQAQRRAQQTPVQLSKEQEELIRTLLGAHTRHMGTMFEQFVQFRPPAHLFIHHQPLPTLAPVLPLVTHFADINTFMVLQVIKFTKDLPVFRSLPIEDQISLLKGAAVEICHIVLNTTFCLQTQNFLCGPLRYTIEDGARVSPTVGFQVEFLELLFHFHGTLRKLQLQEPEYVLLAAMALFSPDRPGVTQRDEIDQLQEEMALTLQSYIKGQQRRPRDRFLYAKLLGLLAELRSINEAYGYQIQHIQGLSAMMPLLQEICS

Where “and” joins values, the source holds several entries; their conditions need not be identical. Identical values can stand only once. This is a selection; strong and weak results do not stand in their true shares. Inconclusive results are not listed. Calls of active or inactive are those of the source. Unless noted, calls follow the shape of the dose curve; as a rule, active = well fitted curve in the direction sought with a large enough effect in the repeat runs; inconclusive = weak or mixed curves; inactive = no such curve, though single readings can be large; an effect the other way counts as inactive or inconclusive.

Test [1] is described as follows: qHTS assay to identify small molecule agonists of the retinoic acid receptor (RAR) signaling pathway (AID 1159553). The following applies: C3RL4 RARE luciferase reporter, agonist, 6 h; at 73.3 µM (top of the series). The source says:
(§1) National Center for Advancing Translational Sciences [NCATS] NIH Chemical Genomics Center [NCGC] U.S. Environmental Protection Agency [EPA] National Institutes of Environmental Health Sciences [NIEHS] National Toxicology Program [NTP] Assay overview: All-trans Retinoic acid (atRA) is the potent natural metabolite of retinol and plays an important role in normal embryonic development and maintenance of cellular phenotype in adult animals. atRA is the activating ligand for the retinoic acid receptors (RARs) which form heterodimers with retinoid X receptors (RXRs) on the retinoic acid response element (RARE). Through activation of the RAR/RXRs nuclear receptors, atRA regulates the transcription of a large number of protein-coding genes and regulatory RNAs. Intracellular levels of atRA are controlled by the retinol signaling pathway (RSP) that regulates the biosynthesis and catabolism of atRA to maintain physiological levels. Chemicals that interfere with the RSP can cause abnormal intracellular levels of atRA and therefore are potential developmental toxicants. To assess compounds for the potential adverse effect on embryonic development through interfering with retinol signaling, a cell-based RARE luciferase reporter gene assay was used. C3RL4 cell line (OARSA/CFSAN/FDA, Laurel, MD) was used to screen Tox21 10K compound library for identifying activators of the RSP.
Assay Protocol Summary: C3RL4 cells were seeded at 1,000/well in 5 uL of assay medium into white solid 1,536-well tissue culture plates (Greiner Bio-One North America Inc. Monroe, NC) using a Multidrop Combi (Thermo Scientific, Waltham, MA) dispenser. After incubation at 37 C and 5% CO2 for an overnight, 23 nL of compounds dissolved in DMSO, positive control or DMSO only were transferred by a Pintool station (Kalypsys, San Diego, CA). After 6 hr incubation at 37 C and 5% CO2, 5 uL of Amplite Luciferase reagent (AAT Bioquest Inc. Sunnyvale, CA) was added to each assay plate using a Flying Reagent Dispenser (FRD) (Aurora Discovery, San Diego, CA). Luminescence was quantified on a ViewLux plate reader (PerkinElmer, Waltham, MA) after 30 min incubation at room temperature.

For test [2], the target named is Luciferin 4-monooxygenase (Photinus pyralis) (UniProt P08659). Briefly: qHTS assay to identify small molecule inhibitors of firefly luciferase (AID 1224835). Also: nearly all actives have a fitted effect of over 25% in size. The note with it: purified P. pyralis luciferase, luminescence inhibition. The source says:
U.S. Tox21 Program National Center for Advancing Translational Sciences [NCATS] NIH Chemical Genomics Center [NCGC] U.S. Environmental Protection Agency [EPA] National Institutes of Environmental Health Sciences [NIEHS] National Toxicology Program [NTP] U.S. Food and Drug Administration [FDA] Tox21 Assay Overview: Firefly (Photinus pyralis) luciferase is one of the most commonly used transcriptional reporters. Firefly luciferase reporter-gene assays are generally considered one of the most sensitive assay types (Wood, 1995; Wood, 1998). However, it was initially observed, in 1991, by Thompson et al., that compounds that resemble the substrates of firefly luciferase (FLuc) can act as competitive inhibitors of the enzyme, and that these compounds, upon interaction with luciferase in the cell, can actually stabilize the protein and increase its half-life. Previous profiling work by other groups to determine the prevalence of compounds that affect FLuc enzymatic activity (PubChem AID 411) identified that ~3% of the MLSMR library (then at ~72K) inhibited FLuc. […] Thus the Tox21 10K library is profiled for activity against FLuc using a biochemical assay of purified FLuc and KM concentrations of FLuc substrates (D-luciferin and ATP).
These assay plates were then treated with 23nL of compound or DMSO using a Kalypsys pin tool, which allows for delivery of a 6-point interplate titration of each compound to the assay plate (quantitative HTS.) 1 uL of firefly luciferase mix (containing 50 mM Tris acetate, pH 7.6, 0.04 uM P. pyralis luciferase, 0.01% Tween, 0.05% BSA and dH2O) was then delivered by FRD to each well. Luciferase activity was then measured using a ViewLux CCD imager.
(In general: qHTS replaces the single test concentration by a dilution series.)

Test [3] deals with Nuclear receptor subfamily 1 group I member 3 (Homo sapiens) (UniProt Q14994). The experiment in a line: qHTS assay to identify small molecule agonists of the constitutive androstane receptor (CAR) signaling pathway (AID 1224839). Also: nearly all actives have a fitted effect of over 15% in size. Also: potency is read from the fitted curve at half-maximal effect.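 As to activation: HepG2 cells stably carrying human CAR and a CYP2B6 luciferase reporter.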
The nature of test [4]: qHTS assay to identify small molecule antagonists of the retinoid acid receptor (RAR) signaling pathway - cell viability counter screen (AID 1159551). Also: nearly all actives have a fitted effect of over 35% in size. The note with it: C3RL4 cells viability, ATP luminescence (CellTiter-Glo), 6 h; at 92.4 µM (top of the series). The method, boiled down: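 Cells (C3RL4) are plated, incubated overnight, dosed with compound in DMSO, then given retinol at 1 uM final. After 6 h at 37 C, CellTiter-Glo is added and luminescence read following 30 min at room temperature.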

Test [5] is described as follows: qHTS assay to identify small molecule antagonists of the retinoic acid receptor (RAR) signaling pathway (AID 1159552; also: nearly all actives have a fitted effect of over 50% in size). The following applies: C3RL4 RARE luciferase reporter, retinol-stimulated, 6 h; at 92.4 µM (top of the series).
Description: National Center for Advancing Translational Sciences [NCATS]
NIH Chemical Genomics Center [NCGC]
U.S. Environmental Protection Agency [EPA]
National Institutes of Environmental Health Sciences [NIEHS]
National Toxicology Program [NTP]
U.S. Food and Drug Administration [FDA]
as §1, with “All-trans” for “National Center for Advancing Translational Sciences [NCATS] NIH Chemical Genomics Center [NCGC] U.S. Environmental Protection Agency [EPA] National Institutes of Environmental Health Sciences [NIEHS] National Toxicology Program [NTP] Assay overview: All-trans”, “inhibitors” for “activators”
Tox21 Assay Protocol Summary:
C3RL4 cells were seeded at 1,000/well in 4 uL of assay medium into white solid 1,536-well tissue culture plates (Greiner Bio-One North America Inc. Monroe, NC) using a Multidrop Combi (Thermo Scientific, Waltham, MA) dispenser. After incubation at 37 C and 5% CO2 for an overnight, 23 nL of compounds dissolved in DMSO, positive control or DMSO only were transferred by a Pintool station (Kalypsys, San Diego, CA). […] Luminescence was quantified on a ViewLux plate reader (PerkinElmer, Waltham, MA) after 30 min incubation at room temperature.

Test [6] deals with Nuclear receptor subfamily 1 group I member 3 (Homo sapiens) (UniProt Q14994). The experiment in a line: qHTS assay to identify small molecule antagonists of the constitutive androstane receptor (CAR) signaling pathway (AID 1224838).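 Also: HepG2 cells stably expressing hCAR with CYP2B6 luciferase reporter stimulated by CITCO; nearly all actives have a fitted effect of over 40% in size.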 The following applies: HepG2-CYP2B6-hCAR luciferase, CITCO-stimulated, 24 h; at 92.4 µM (top of the series).
Test [7] can be described thus: qHTS assay to identify small molecule antagonists of the estrogen related receptor (ERR) signaling pathway from Tox21 library - cell viability counter screen (AID 1224834). Also: nearly all actives have a fitted effect of over 30% in size. The note with it: ERR reporter cells viability, CellTiter-Fluor, 17.5 h; at 92.4 µM (top of the series). The procedure, abridged: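 ERR cells, 2,000/well; 6 h settle at 37 C/5% CO2; pin-tool compound transfer in DMSO; 17.5 h at 37 C; CellTiter-Fluor, 30 min; fluorescence intensity.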

The nature of test [8]: qHTS assay to identify small molecule agonists of the constitutive androstane receptor (CAR) signaling pathway - cell viability counter screen (AID 1224836). Also: nearly all actives have a fitted effect of over 45% in size. The note with it: HepG2-CYP2B6-hCAR viability, CellTiter-Fluor, 23 h, PK11195 added to every well; at 92.4 µM (top of the series). The text has this:
U.S. Tox21 Program National Center for Advancing Translational Sciences [NCATS] NIH Chemical Genomics Center [NCGC] U.S. Environmental Protection Agency [EPA] National Institutes of Environmental Health Sciences [NIEHS] National Toxicology Program [NTP] U.S. Food and Drug Administration [FDA] Tox21 Assay Overview: The constitutive androstane receptor (CAR) is a nuclear receptor which regulates multiple drug metabolizing enzymes (DMEs) and transporters. Activating CAR will generally increase the transcription and subsequent translation of CYP2B6 and CYP3A4. These two DMEs represent about 50% of the drug metabolizing potential in the body. […] Recently, there have also been studies performed indicating CARs role in energy metabolism and cancer therapy. Therefore, inducing CARs activity could have a potential effect on diabetes and cancer. Identifying environmental toxins and compounds which modulate CAR, through the use of the Tox21 10K compound collection, will be an important step in determining the toxicity and potential therapeutic effects these factors will have on the human body. […]
Tox21 Assay Protocol Summary: A double-stable (hCAR and CYP2B6-2.2kb) transfected cell line, derived from human hepatoma (HepG2) cells, was utilized for the duration of the quantitative high-throughput screens. […] The fluorescence intensity in the plates was then measured using a ViewLux plate reader.

Test [9] is described as follows: qHTS assay to identify small molecule antagonists of the constitutive androstane receptor (CAR) signaling pathway - cell viability counter screen (AID 1224837). Also: nearly all actives have a fitted effect of over 45% in size. The following applies: HepG2-CYP2B6-hCAR viability, CellTiter-Fluor, 23 h, co-treated with 50 nM CITCO; at 92.4 µM (top of the series). The procedure, abridged: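 Viability was measured with CellTiter-Fluor in a HepG2 line carrying stably transfected hCAR and a CYP2B6-2.2kb construct. Cells were exposed for 23 hr at 37 C to 15 compound concentrations with 50 nM CITCO as agonist.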

Test [10] is described as follows: qHTS assay to identify small molecule antagonists of the estrogen related receptor signaling pathway with the pleiotropic PPARgamma coactivator (PGC) from Tox21 10K library - cell viability counter screen (AID 1224840; active = well fitted cell-killing curve with a large enough effect in the repeat runs, not every such curve was filed as active; also: nearly all actives have a fitted effect of over 40% in size). The note with it: PGC/ERR reporter cells viability, CellTiter-Fluor, 17.5 h; at 92.4 µM (top of the series). The procedure, abridged:
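Multiplexed viability counter screen in the PGC/ERR cell line: cells treated with DMSO-dissolved compounds for 17.5 hours at 37 C, then viability measured as CellTiter-Fluor fluorescence.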
% is scaled to controls: 0 for no effect and ±100 for the full control effect.

Regarding `CN(CCCl)CCCl`, the activation in [1] is inactive: -5.92% and inactive: -13.9%. The values for the activity change, negative = inhibition in test [2] (at 52.9 µM (top of the series)) and in test [2] (at 115 µM (top of the series)) were inactive: -0.251% and inactive: 0.739%, respectively. The Potency result in test [3] was “inactive”.
Consider `CCC(=O)N(c1ccccc1)C1(COC)CCN(CCc2cccs2)CC1`, for which, in [4], the activity change, negative = cytotoxicity is inactive: -2.05%. In addition, the values for the activity, negative = inhibition in [5] and in test [6] were inactive: -9.17% and inactive: 13.3%, respectively. The activation in test [1] was inactive: -3.98%. In [2] (at 115 µM (top of the series)), the activity change, negative = inhibition was inactive: 0.89%. Moreover, in test [3], the Potency was active: 30.6 µM.
For the compound `O=[N+]([O-])C(Cl)(Cl)Cl`, the values for the activity change, negative = cytotoxicity in [4] and in [9] were inactive: -0.298% and inactive: 0.594%, respectively. Besides, the activity, negative = inhibition in [5] was inactive: 14.6%; in test [6] it was inactive: 0.0531%. For the same compound, the activation in [1] is inactive: -1%. Besides, the viability change, negative = cytotoxic was inactive: 2.05% in test [7], inactive: -0.0017% in test [8] and inactive: 2.94% in test [10]. Further, the activity change, negative = inhibition in test [2] (at 115 µM (top of the series)) is inactive: 2.78%. Further, in test [3], the Potency result was “inactive”.
With `CCC(=O)N(c1ccccc1)C1(COC)CCN(CCn2nnn(CC)c2=O)CC1`, the activity change, negative = cytotoxicity in test [4] was inactive: -1.65%; in [9], inactive: 3.4%. The activity, negative = inhibition in [5] is inactive: 10.5%; in test [6], inactive: 9.11%. The activation in [1] is inactive: -0.195%. In addition, the viability change, negative = cytotoxic in test [7] is inactive: 1.83%; in [8], inactive: -3.66%; in test [10], inactive: 4.41%. The activity change, negative = inhibition in [2] (at 115 µM (top of the series)) was inactive: 2.32%. In addition, in test [3], the Potency entry was “inactive”.
